# Apparent affinities of Ab-14 variants for a coronavirus HR2 peptide

The measurements come from Li et al. 2023 (doi:10.1038/s41467-023-39022-2) through the FLAb antibody collection.

Target: peptide PDVDLGDISGINAS, taken from heptad repeat 2 (HR2) of SARS-CoV-2 spike.

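The parent was found by panning a naive human phage display library on the peptide. These sequences belong to a second round, designed from the earlier measurements on random variants of the parent. Group labels follow the data file (Ctrl: baseline library sampled from a position-specific scoring matrix, with some repeated check sequences; Rand: our label for a block that the file lists under HC and that is probably the random mutants of the ten best first-round binders; En: ensemble of fine-tuned language models; GP: Gaussian process model; HC: hill climbing; Gen: genetic algorithm; Gibbs: Gibbs sampling; a sequence that several methods proposed may carry one label only). The assay is AlphaSeq: two haploid yeast populations carry antibody and antigen on their surface. After mating in shaken culture at 30 °C for 16 h, diploids were selected and their barcode pairs sequenced. Each replicate has its own calibration line, from reference interactions of the BCL2 family. The assay was run in six technical replicates.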

Ab-14 is the parent antibody, in scFv form: VH, then a (GGGGS)3 linker, then VL. The heavy chain is unchanged in all variants.
VH: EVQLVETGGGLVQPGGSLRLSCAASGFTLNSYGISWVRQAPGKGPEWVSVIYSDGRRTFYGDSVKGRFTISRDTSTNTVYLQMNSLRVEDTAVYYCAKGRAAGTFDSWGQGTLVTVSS
VL: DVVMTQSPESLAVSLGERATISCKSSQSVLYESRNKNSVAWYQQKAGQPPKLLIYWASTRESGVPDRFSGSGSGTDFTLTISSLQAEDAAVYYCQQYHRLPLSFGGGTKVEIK

The parent's light chain CDRs are KSSQSVLYESRNKNSVA, WASTRES, QQYHRLPLS; each variant's own CDRs replace them letter for letter. Values are log10 of the apparent Kd in nM; lower means stronger binding. Replicates are averaged; those with no signal do not enter the mean. An entry "nd" has no value in the source: the pair was not observed among the diploids in any replicate. This suggests poor binding but is not conclusive. Three control strains display no target. For all light chain designs, 4% of the pairings with them gave a signal, with a median of 2.64 and one signal in twenty below 1.59, so weak values seen in few replicates may be background. Of ten entries with the parent sequence, four were seen in most replicates (averages 0.34 to 2.37), three in one and three in none, so single entries are noisy. The authors' rule: three or more of the six replicates give a measured affinity, fewer mean a poor binder. A sequence measured in both rounds can read differently, since the two assays cover different ranges.

| CDR-L1 | CDR-L2 | CDR-L3 | group | mean, log10 nM | seen in |
|---|---|---|---|---|---|
| KVSQSFLYESRNKNAVA | GASTRES | QQYHRLCLS | GP_HC | 0.01 | 6 of 6 |
| KSSQSFLYESQNKNSVA | MASTRES | QQYARLPLS | Ctrl | 0.40 | 6 of 6 |
| SLRAMILDWDNKMQNIA | DVHMREQ | QQYFRLPIV | En_Gibbs | 1.06 | 6 of 6 |
| TLTQVNGMESHNKDNVA | DLSTRGS | QQYHRLPLS | En_HC | 0.01 | 6 of 6 |
| TLTQVNGMESHNKDNVA | DLSTRGN | QQYHRLPLS | En_HC | 0.37 | 6 of 6 |
| KSSQSVLQESRNKNSVA | WASTRES | QTYHRLPLS | Ctrl | 2.36 | 3 of 6 |
| KLSQSWEYESRNKNSVA | NASQRES | QQYHRLPLS | GP_Gen | -0.18 | 6 of 6 |
| KSGQGVLYESRNKYSVA | GASTRES | QSYHRLPLS | Rand | 1.73 | 6 of 6 |
| KVEMGVDDLSRNDNSVA | WASTRES | QQYHRLPLS | GP_Gibbs | 1.07 | 6 of 6 |
| KLGDMVHTLSRNKNSIA | DMRTRES | QQYFRLPLS | En_HC | nd | 0 of 6 |
| KFSQSVLYESRNGNSVA | NASTRES | QQYHRLPLS | GP_Gen | 0.02 | 6 of 6 |
| QSSQSFLYESRNKNSVA | AASTRES | QQYHRLPLS | GP_HC | 0.08 | 6 of 6 |
| HFAKQLQSLYNSKQNVA | NASTVMV | QHYNRLPLS | En_Gibbs | 1.18 | 6 of 6 |
| HLSDSVLYESRNKNSVA | NASTRES | QQYHRLPLS | GP_HC | -0.39 | 6 of 6 |
| ALSIQQQEPTGIVNSIA | QTSLREH | QQYHHLPLC | En_Gibbs | 0.56 | 6 of 6 |
| KLSQSVLYMSRNKNSVA | EASTRES | QQYHRLPLS | GP_Gen | -0.37 | 6 of 6 |
| KLSQSHLYESRNKNSVA | NASTRLS | QQYHRLPLS | GP_Gen | 0.07 | 6 of 6 |
| KSSQSVLYESRNKNSVA | WASTREP | QQYHVLPLS | Ctrl | nd | 0 of 6 |
| KMSQSVYPESRNKNSVA | WAYTRVT | QQYHRLPLS | Ctrl | 1.85 | 6 of 6 |
| TISQITSLFSQTINNVA | EVSTREN | QQYDRLPLS | En_Gen | 0.95 | 6 of 6 |
| KLPQSFLYESRNKNSVA | NASTRLS | QQYHRLPLS | GP_Gen | -0.09 | 6 of 6 |
| KSSQSFTYESRNVNSVA | GASTRDS | QQRHRLTLS | Rand | 0.23 | 6 of 6 |

The remaining entries, values ahead:

| mean, log10 nM | seen in | CDR-L1 | CDR-L2 | CDR-L3 | group |
|---|---|---|---|---|---|
| 0.14 | 6 of 6 | KVSQEQDYQSRNKNSVA | DASLRES | QQYHRLPLS | GP_Gibbs |
| -0.03 | 6 of 6 | KLSQLVLYESRNKNSVA | DASTRES | QQYHRLPLS | GP_Gen |
| -0.48 | 6 of 6 | KLSQSVGYEERNKNSVA | NASTRES | QQYHRLPLS | GP_Gen |
| 0.68 | 6 of 6 | KISQSVLAESRNKNSVA | WASTRES | QQYHRLPLS | Ctrl |
| 0.10 | 6 of 6 | IMSESQERDASRLNNIA | DHYTRAT | QQYARLPLS | En_Gibbs |
| 0.78 | 6 of 6 | KSSQSVLYESMNKNSVA | KASTRES | QQYERLPLS | Ctrl |
| -0.05 | 6 of 6 | KLQQSVLYESRNKNSVA | HASTRCD | QQYHRLPLS | GP_Gen |
| -0.16 | 6 of 6 | KLEQSELYESRNKNSVA | EASQRES | QQYHRLPLS | GP_Gen |
| 1.79 | 6 of 6 | KLSMITGHMHMSKNNVA | EMVTRVN | QQYDRLPLA | En_Gen |
| 0.36 | 6 of 6 | QLEVFPLQAGSTYQAIA | DASHSTP | QQYSRLPLV | En_Gibbs |
| 1.52 | 6 of 6 | HLGNEGDNQGNAKKSVA | DQSTVQL | QHYWRLPLT | En_Gibbs |
| 0.33 | 6 of 6 | MMTMFPNEPTGDSNNIA | DTNQLNT | QQYQRLPLM | En_Gibbs |
| 2.41 | 2 of 6 | KSSQSVLYEMRNKNSVA | WASTRES | QYYHRLPLS | Ctrl |
| nd | 0 of 6 | KSSQSVLYESKNKNSVA | WASTHES | QQYHRLPLS | Ctrl |
| -0.15 | 6 of 6 | KESQSEPYESANKNSVA | NAMQRMS | QQYHRLPLS | GP_Gibbs |
| 1.28 | 6 of 6 | NVRDSLGYVQNVGSAVA | EASQVED | QQYYTLPLT | En_Gibbs |
| 1.63 | 6 of 6 | KVSEFMRGLMQKTDSIA | DNQTRES | QQYDRLPLS | En_Gen |
| 0.37 | 6 of 6 | VLAMESYQKSRHESNIA | GANMRAQ | QQYARLPFQ | En_Gibbs |
| 0.50 | 6 of 6 | KSSQSWAYESRNFNSVA | SASTRES | QQYHRLPLS | Ctrl |
| 1.78 | 3 of 6 | MLSQMWALGMKVSNSVA | QVSTRFE | QQYDRLPLE | En_Gen |
| 1.41 | 6 of 6 | KSSQSVLYESRNKNSVA | DCSTRES | QPYHRLPLS | Ctrl |
| 2.48 | 6 of 6 | KSSQSVLYESKNKNSVA | WASTRES | QQYHRLPLS | Ctrl |
| 1.31 | 6 of 6 | KISQMVKVGATHNNSIA | EEVTRAK | QQYHRLPLS | En_Gen |

Picked from the list: the 3 lowest averages where every replicate gave a value.

| CDR-L1 | CDR-L2 | CDR-L3 | group | mean, log10 nM | seen in |
|---|---|---|---|---|---|
| KLSQSVGYEERNKNSVA | NASTRES | QQYHRLPLS | GP_Gen | -0.48 | 6 of 6 |
| HLSDSVLYESRNKNSVA | NASTRES | QQYHRLPLS | GP_HC | -0.39 | 6 of 6 |
| KLSQSVLYMSRNKNSVA | EASTRES | QQYHRLPLS | GP_Gen | -0.37 | 6 of 6 |